Experimental data from ChEMBL document CHEMBL5365527, “Structure-Guided Design of Nurr1 Agonists Derived from the Natural Ligand Dihydroxyindole” (J Med Chem, 2023).

Chains of the proteins cited; added tags and fusions are not shown. Lines headed by an entry give the natural chain unless they say otherwise; changes in a name come on top.
UniProt P22736, whole entry: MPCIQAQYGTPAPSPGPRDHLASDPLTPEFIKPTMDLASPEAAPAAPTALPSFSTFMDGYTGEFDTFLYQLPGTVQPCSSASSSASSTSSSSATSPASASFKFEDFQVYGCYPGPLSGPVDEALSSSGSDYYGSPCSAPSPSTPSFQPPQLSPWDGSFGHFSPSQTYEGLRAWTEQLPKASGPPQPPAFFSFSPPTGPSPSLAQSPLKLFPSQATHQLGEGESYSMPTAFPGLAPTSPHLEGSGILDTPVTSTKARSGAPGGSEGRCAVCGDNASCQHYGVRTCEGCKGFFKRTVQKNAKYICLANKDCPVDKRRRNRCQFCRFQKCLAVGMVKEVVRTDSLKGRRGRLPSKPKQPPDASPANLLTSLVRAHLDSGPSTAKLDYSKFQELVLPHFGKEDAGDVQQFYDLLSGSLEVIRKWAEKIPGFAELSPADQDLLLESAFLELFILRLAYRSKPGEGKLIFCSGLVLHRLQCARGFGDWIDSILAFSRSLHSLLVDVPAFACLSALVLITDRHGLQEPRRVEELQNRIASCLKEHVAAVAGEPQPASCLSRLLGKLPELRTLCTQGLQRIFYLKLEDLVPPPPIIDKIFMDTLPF
UniProt Q07917, whole entry: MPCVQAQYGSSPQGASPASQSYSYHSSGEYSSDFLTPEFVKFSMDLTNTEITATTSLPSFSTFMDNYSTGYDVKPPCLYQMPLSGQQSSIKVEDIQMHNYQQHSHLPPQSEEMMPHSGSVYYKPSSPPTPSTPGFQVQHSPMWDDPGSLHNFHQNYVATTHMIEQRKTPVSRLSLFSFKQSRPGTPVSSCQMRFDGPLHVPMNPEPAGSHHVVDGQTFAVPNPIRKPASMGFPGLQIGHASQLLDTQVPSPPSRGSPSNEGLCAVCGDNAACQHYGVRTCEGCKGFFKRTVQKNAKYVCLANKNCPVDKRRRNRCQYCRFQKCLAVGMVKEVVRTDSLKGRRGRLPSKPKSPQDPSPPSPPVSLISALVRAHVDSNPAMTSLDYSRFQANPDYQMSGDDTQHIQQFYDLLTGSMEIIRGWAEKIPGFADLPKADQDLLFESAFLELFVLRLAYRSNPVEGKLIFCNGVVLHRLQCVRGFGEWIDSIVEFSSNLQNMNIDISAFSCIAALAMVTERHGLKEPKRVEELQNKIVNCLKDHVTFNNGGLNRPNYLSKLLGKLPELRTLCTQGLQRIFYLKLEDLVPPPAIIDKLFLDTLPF
UniProt P51449: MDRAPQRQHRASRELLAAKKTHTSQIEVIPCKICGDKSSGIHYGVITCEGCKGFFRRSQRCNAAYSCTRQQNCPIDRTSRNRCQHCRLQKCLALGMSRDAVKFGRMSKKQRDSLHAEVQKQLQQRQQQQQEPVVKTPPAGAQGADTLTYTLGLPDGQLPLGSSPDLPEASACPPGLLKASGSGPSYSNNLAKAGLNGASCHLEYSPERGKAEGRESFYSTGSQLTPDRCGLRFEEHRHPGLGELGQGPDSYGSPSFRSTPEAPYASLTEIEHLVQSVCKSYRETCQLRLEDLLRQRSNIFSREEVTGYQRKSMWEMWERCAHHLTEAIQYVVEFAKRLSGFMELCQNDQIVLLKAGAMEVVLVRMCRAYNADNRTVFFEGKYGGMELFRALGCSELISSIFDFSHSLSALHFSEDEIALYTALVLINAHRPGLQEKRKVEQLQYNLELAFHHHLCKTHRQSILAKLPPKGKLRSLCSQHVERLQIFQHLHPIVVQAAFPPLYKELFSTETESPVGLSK
UniProt Q92570: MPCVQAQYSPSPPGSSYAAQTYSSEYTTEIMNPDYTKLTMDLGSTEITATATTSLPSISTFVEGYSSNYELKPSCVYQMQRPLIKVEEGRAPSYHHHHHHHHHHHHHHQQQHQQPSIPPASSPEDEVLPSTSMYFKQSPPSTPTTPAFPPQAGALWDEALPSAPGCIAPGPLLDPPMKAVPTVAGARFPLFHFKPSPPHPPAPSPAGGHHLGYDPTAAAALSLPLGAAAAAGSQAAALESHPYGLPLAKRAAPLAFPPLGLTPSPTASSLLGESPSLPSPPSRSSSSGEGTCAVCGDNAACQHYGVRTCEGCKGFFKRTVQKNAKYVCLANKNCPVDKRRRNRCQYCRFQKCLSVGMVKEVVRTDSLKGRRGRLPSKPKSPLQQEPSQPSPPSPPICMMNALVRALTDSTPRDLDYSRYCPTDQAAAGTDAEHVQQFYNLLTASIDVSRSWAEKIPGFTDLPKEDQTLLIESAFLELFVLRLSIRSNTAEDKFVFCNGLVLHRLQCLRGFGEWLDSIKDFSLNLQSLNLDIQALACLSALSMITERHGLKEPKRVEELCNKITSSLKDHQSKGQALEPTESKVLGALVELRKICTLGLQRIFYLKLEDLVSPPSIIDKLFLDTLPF
UniProt P10276, whole entry: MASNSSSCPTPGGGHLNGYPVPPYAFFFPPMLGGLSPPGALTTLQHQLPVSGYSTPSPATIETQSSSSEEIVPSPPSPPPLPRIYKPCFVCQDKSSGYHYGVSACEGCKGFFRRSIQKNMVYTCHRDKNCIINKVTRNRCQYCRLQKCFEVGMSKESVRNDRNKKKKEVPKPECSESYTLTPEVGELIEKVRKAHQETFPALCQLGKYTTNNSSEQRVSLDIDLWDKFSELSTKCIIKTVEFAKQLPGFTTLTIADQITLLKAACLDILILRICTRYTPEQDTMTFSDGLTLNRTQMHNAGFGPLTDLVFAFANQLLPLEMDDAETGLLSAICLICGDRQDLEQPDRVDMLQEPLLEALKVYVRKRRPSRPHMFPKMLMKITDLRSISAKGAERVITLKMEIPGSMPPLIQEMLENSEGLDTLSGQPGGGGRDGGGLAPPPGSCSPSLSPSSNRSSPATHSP
UniProt Q13133, whole entry: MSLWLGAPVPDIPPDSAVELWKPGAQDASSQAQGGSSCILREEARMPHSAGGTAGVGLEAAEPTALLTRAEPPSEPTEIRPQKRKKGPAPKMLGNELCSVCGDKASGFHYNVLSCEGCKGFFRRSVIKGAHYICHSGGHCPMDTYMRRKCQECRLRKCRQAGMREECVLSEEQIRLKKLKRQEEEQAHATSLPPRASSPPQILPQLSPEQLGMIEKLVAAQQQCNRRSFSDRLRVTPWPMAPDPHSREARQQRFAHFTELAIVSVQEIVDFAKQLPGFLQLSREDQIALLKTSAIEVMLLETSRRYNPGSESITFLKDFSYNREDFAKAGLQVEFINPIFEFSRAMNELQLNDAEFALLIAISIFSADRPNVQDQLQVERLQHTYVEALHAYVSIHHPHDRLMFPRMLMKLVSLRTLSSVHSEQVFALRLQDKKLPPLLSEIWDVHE

How the values were obtained:
Type in all cases: cell-based
[1] = target: Nuclear receptor subfamily 4immunitygroup A member 1 (Homo sapiens) (UniProt P22736); assay: Agonist activity at Nur77 LBD (unknown origin) transfected in human HEK293T cells co-transfected with pFR-Luc/pRL-SV40 assessed as fold activation of luciferase activity incubated for 16 hrs by Gal4 hybrid reporter gene assay; conditions: filed as agonist
[2] = target: T1, Nuclear receptor subfamily 1 group D member 1 (Homo sapiens) (UniProt P20393); assay: Modulation activity at Rev-ERBalpha LBD (unknown origin) transfected in human HEK293T cells co-transfected with pFR-Luc/pRL-SV40 assessed as fold activation of luciferase activity at 30 uM incubated for 16 hrs by Gal4 hybrid reporter gene assay relative to control
T1 sequence (whole entry): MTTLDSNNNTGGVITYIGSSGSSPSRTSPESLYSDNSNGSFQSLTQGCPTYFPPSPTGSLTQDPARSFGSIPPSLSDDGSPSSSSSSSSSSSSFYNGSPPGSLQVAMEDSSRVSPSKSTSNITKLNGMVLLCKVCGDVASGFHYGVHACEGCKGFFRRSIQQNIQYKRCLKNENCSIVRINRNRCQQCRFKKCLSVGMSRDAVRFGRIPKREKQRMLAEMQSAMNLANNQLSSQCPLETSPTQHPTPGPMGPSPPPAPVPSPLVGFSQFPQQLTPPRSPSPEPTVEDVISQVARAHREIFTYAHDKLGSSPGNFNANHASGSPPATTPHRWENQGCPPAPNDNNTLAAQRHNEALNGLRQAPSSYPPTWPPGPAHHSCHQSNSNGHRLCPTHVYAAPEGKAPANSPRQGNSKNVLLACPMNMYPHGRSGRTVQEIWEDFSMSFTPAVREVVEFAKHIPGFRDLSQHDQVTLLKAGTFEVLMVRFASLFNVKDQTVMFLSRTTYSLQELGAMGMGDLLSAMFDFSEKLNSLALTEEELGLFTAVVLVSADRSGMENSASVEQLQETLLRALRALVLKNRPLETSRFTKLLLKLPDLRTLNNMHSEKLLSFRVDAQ

[3] = target: Nuclear receptor subfamily 4 group A member 2 (Rattus norvegicus) (UniProt Q07917); assay: Agonist activity at Nurr1 in rat N27 cells assessed as increase in VMAT mRNA expression level at 3 to 30 uM incubated for 16 hrs by qPCR analysis; conditions: filed as agonist, dose 3-30 µM
[4] = target: Nuclear receptor subfamily 4 group A member 2 (Rattus norvegicus) (UniProt Q07917); assay: Agonist activity at Nurr1 in rat N27 cells assessed as increase in SOD2 mRNA expression level at 3 to 30 uM incubated for 16 hrs by qPCR analysis; conditions: filed as agonist, dose 3-30 µM
[5] = target: Nuclear receptor ROR-gamma (Homo sapiens) (UniProt P51449); assay: Modulation activity at RORgamma LBD (unknown origin) transfected in human HEK293T cells co-transfected with pFR-Luc/pRL-SV40 assessed as fold activation of luciferase activity at 30 uM incubated for 16 hrs by Gal4 hybrid reporter gene assay relative to control
[6] = target: Nuclear receptor subfamily 4 group A member 3 (Homo sapiens) (UniProt Q92570); assay: Agonist activity at NOR1 LBD (unknown origin) transfected in human HEK293T cells co-transfected with pFR-Luc/pRL-SV40 assessed as fold activation of luciferase activity incubated for 16 hrs by Gal4 hybrid reporter gene assay
[7] = target: T2, Retinoic acid receptor RXR-alpha (Homo sapiens) (UniProt P19793); assay: Modulation activity at RXRalpha LBD (unknown origin) transfected in human HEK293T cells co-transfected with pFR-Luc/pRL-SV40 assessed as fold activation of luciferase activity at 30 uM incubated for 16 hrs by Gal4 hybrid reporter gene assay relative to control
T2 sequence (whole entry): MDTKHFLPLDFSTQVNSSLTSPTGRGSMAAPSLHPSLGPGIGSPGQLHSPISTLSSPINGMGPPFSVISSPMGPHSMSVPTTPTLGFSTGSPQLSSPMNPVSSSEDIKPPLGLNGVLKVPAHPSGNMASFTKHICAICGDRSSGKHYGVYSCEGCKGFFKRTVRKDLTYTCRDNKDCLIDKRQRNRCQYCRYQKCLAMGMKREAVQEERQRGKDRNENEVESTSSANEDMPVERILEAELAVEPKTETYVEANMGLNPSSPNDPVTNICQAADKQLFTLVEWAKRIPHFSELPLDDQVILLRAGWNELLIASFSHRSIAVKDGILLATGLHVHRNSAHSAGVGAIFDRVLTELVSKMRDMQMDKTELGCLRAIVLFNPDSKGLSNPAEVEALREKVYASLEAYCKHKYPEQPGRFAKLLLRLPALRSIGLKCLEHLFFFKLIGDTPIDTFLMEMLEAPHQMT

[8] = target: Retinoic acid receptor alpha (Homo sapiens) (UniProt P10276); assay: Modulation activity at RARalpha LBD (unknown origin) transfected in human HEK293T cells co-transfected with pFR-Luc/pRL-SV40 assessed as fold activation of luciferase activity at 30 uM incubated for 16 hrs by Gal4 hybrid reporter gene assay relative to control
[9] = target: Nuclear receptor subfamily 4 group A member 2 (Rattus norvegicus) (UniProt Q07917); assay: Agonist activity at Nurr1 in rat N27 cells assessed as increase in TH mRNA expression level at 3 to 30 uM incubated for 16 hrs by qPCR analysis; conditions: filed as agonist, dose 3-30 µM
[10] = target: T3, Bile acid receptor (Homo sapiens) (UniProt Q96RI1); assay: Modulation activity at FXR LBD (unknown origin) transfected in human HEK293T cells co-transfected with pFR-Luc/pRL-SV40 assessed as fold activation of luciferase activity at 30 uM incubated for 16 hrs by Gal4 hybrid reporter gene assay relative to control
T3 sequence (whole entry): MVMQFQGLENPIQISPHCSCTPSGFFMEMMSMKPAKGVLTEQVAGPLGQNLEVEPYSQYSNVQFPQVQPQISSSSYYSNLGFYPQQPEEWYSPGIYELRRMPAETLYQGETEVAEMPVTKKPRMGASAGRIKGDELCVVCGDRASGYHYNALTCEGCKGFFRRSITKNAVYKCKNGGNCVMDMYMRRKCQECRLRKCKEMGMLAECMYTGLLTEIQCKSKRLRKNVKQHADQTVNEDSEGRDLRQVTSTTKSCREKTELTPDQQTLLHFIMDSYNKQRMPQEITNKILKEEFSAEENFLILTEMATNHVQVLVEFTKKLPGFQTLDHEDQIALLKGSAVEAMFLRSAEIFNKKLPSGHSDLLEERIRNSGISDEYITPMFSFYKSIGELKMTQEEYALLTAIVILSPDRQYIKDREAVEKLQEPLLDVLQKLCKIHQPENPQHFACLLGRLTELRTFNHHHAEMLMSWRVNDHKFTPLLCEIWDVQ

[11] = target: Nuclear receptor subfamily 4 group A member 2 (Rattus norvegicus) (UniProt Q07917); assay: Agonist activity at Nurr1 in rat N27 cells assessed as increase in SOD1 mRNA expression level at 3 to 30 uM incubated for 16 hrs by qPCR analysis; conditions: filed as agonist, dose 3-30 µM
[12] = target: Oxysterols receptor LXR-alpha (Homo sapiens) (UniProt Q13133); assay: Modulation activity at LXRalpha LBD (unknown origin) transfected in human HEK293T cells co-transfected with pFR-Luc/pRL-SV40 assessed as fold activation of luciferase activity at 30 uM incubated for 16 hrs by Gal4 hybrid reporter gene assay relative to control
[13] = target: T4, Vitamin D3 receptor (Homo sapiens) (UniProt P11473); assay: Modulation activity at VDR LBD (unknown origin) transfected in human HEK293T cells co-transfected with pFR-Luc/pRL-SV40 assessed as fold activation of luciferase activity at 30 uM incubated for 16 hrs by Gal4 hybrid reporter gene assay relative to control
T4 sequence (whole entry): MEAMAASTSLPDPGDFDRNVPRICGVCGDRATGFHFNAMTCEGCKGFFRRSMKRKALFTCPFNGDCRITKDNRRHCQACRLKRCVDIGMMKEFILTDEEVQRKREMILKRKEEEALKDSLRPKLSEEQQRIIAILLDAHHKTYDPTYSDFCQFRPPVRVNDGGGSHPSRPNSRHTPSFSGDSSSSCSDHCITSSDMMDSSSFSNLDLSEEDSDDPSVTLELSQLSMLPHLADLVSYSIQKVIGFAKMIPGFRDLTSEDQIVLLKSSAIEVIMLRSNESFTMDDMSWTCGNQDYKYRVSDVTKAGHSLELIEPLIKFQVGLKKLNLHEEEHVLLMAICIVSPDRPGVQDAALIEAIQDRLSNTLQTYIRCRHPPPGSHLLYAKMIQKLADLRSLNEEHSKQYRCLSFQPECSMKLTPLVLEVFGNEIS

[14] = target: T5, Thyroid hormone receptor alpha (Homo sapiens) (UniProt P10827); assay: Modulation activity at THRalpha LBD (unknown origin) transfected in human HEK293T cells co-transfected with pFR-Luc/pRL-SV40 assessed as fold activation of luciferase activity at 30 uM incubated for 16 hrs by Gal4 hybrid reporter gene assay relative to control
T5 sequence (whole entry): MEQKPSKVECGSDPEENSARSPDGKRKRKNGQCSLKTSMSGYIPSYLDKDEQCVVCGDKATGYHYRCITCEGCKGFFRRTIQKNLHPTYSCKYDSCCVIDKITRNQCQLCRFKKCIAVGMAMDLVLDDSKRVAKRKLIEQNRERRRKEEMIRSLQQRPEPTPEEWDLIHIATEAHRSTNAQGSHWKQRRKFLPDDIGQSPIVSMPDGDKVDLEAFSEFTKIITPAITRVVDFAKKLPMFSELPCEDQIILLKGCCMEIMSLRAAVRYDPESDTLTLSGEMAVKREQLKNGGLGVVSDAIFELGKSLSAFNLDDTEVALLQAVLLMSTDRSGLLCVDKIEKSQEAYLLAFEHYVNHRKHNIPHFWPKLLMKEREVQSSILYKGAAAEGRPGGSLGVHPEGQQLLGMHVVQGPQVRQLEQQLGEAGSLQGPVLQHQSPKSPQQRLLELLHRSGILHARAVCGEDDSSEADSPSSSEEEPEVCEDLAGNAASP

## CN(C)CCOc1ccc(Cl)cc1NC(=O)c1cc2[nH]ccc2cc1Cl
[1]
  Activity: Active
[2]
  Activity: inactive
[3]
  Activity: Dose-Dependent Effect
[4]
  Activity: Dose-Dependent Effect
[5]
  Activity: inactive
[6]
  Activity: inactive
[7]
  Activity: inactive
[8]
  Activity: inactive
[9]
  Activity: Dose-Dependent Effect
[10]
  Activity: inactive
[11]
  Activity: Dose-Dependent Effect
[12]
  Activity: inactive
[13]
  Activity: inactive
[14]
  Activity: inactive

## CN(C)CCOc1ccc(Cl)cc1Nc1ccnc2cc(Cl)ccc12
[1]
  Activity: Active
[2]
  Activity: inactive
[3]
  Activity: Dose-Dependent Effect
[4]
  Activity: Dose-Dependent Effect
[5]
  Activity: inactive
[6]
  Activity: inactive
[7]
  Activity: inactive
[8]
  Activity: inactive
[9]
  Activity: Dose-Dependent Effect
[10]
  Activity: inactive
[11]
  Activity: Dose-Dependent Effect
[12]
  Activity: inactive
[13]
  Activity: inactive
[14]
  Activity: inactive

Activity calls are given as the source filed them. The rule behind the calls is not given here.
